Earlier results in PMC5327911 (Clinical Pharmacology : Advances and Applications, 2017).

Conditions: atenolol; cited from earlier work

CC(C)NCC(O)COc1ccc(CC(N)=O)cc1 (stereo not shown) [Atenolol, atenolol]
fraction of the oral dose excreted unchanged in the feces: Half
